From PubChem BioAssay AID2524 (Sanford-Burnham Center for Chemical Genomics, 2010)
This is a selection; strong and weak results do not stand in their true shares. Some of these compounds have results that are not shown, active ones among them. Active and inactive are the calls of the source.

Sequences of proteins named here, by UniProt entry; tags and fusion partners are left off.
UniProt P09923, whole entry: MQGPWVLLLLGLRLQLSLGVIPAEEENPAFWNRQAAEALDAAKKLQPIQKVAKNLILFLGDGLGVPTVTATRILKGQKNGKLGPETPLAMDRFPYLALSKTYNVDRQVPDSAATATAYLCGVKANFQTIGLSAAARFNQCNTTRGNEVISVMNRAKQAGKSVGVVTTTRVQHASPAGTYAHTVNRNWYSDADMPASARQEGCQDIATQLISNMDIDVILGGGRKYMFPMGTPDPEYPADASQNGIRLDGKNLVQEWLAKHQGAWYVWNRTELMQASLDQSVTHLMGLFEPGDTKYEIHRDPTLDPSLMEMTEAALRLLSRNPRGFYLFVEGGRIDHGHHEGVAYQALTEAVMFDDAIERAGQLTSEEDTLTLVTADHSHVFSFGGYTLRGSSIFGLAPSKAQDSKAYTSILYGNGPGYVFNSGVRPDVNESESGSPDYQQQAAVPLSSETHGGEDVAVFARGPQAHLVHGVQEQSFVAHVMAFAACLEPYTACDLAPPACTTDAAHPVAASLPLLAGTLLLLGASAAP

target: Intestinal-type alkaline phosphatase (Homo sapiens) (UniProt P09923); test: human IAP activators, primary screen, biochemical, luminescence, uHTS (AID 2524); details: purified human IAP, CDP-Star luminescence, 30 min; at 10 µM; hits give high values; 1 = vehicle-only enzyme, 0 = enzyme-free background

Q: `COc1cc(C(=O)NCC2(N(C)C)CCCCC2)c([N+](=O)[O-])cc1OC` was tested. Which activation factor did it give?
A: The activation factor was inactive: 1.12.

Q: For `CN(C)C1(CNC(=O)c2ccc(Br)cc2)CCCCC1`, which activation factor is on record?
A: Its activation factor is inactive: 1.1.

Q: How did the activation factor turn out when `O=C(NCC1(N2CCCCC2)CCCCC1)c1cccc(Cl)c1` was run?
A: The activation factor was inactive: 1.01.

Q: For `COc1ccc(Cl)cc1C(=O)NCC1(N(C)C)CCCCC1`, which activation factor is on record?
A: Its activation factor is inactive: 1.04.

Q: Which activation factor does the source give for `COc1cccc(C(=O)NCC2(N3CCCCC3)CCCCC2)c1` here?
A: Its activation factor is inactive: 0.972.

Q: How did the activation factor turn out when `O=C(OC1CN2CCC1CC2)C(CO)(c1ccccc1)c1ccccc1` (centres undefined) was run?
A: The activation factor was inactive: 0.961.

Q: `CN(C)c1cccc(C(=O)NCC2(N(C)C)CCCCC2)c1` was tested. Which activation factor did it give?
A: Its activation factor is inactive: 1.09.

Q: `CC(C)Oc1ccc(C(=O)NCC2(N(C)C)CCCCC2)cc1` was tested. Which activation factor did it give?
A: The activation factor was inactive: 1.14.

Q: Which activation factor does the source give for `COc1ccc(Br)c(C(=O)NCC2(N3CCCCC3)CCCCC2)c1` here?
A: Its activation factor is inactive: 1.02.

Q: Which activation factor does the source give for `CN1[C@@H]2CC[C@H]1CC(OC(=O)C(O)(c1ccccc1)c1ccccc1)C2` (some centres undefined) here?
A: The activation factor was inactive: 0.866.

Q: Which activation factor does the source give for `O=C(NCC1(N2CCCCC2)CCCCC1)c1cc([N+](=O)[O-])ccc1Cl` here?
A: The activation factor was inactive: 0.982.

Q: How did the activation factor turn out when `Cc1ccc(C(=O)NCC2(N3CCCCC3)CCCCC2)cc1` was run?
A: Its activation factor is inactive: 0.92.

Q: Which activation factor does the source give for `CC(C)N1C(=O)CC2(CCN(CCOC(=O)C(O)(c3ccccc3)c3ccccc3)CC2)C1=O` here?
A: Its activation factor is inactive: 0.713.

Q: Which activation factor does the source give for `COc1cc(SC)ccc1C(=O)NCC1(N(C)C)CCCCC1` here?
A: Its activation factor is inactive: 1.07.

Q: Which activation factor does the source give for `CCN(CC)CC(C)C(C)OC(=O)C(O)(c1ccccc1)c1ccccc1` (centres undefined) here?
A: Its activation factor is inactive: 1.02.

Q: `CN(C)C1CCCC1OC(=O)C(O)(c1ccccc1)c1ccccc1` (centres undefined) was tested. Which activation factor did it give?
A: Its activation factor is inactive: 1.04.

Q: With `CN(C)c1ccc(C(=O)NCC2(N(C)C)CCCCC2)cc1` as the compound, how does the activation factor read?
A: Its activation factor is inactive: 1.09.

Q: With `Cc1ccccc1C(=O)NCC1(N2CCCCC2)CCCCC1` as the compound, how does the activation factor read?
A: Its activation factor is inactive: 1.02.

Q: How did the activation factor turn out when `O=C(NCC1(N2CCCCC2)CCCCC1)c1cccc(Br)c1` was run?
A: The activation factor was inactive: 1.3.

Q: Which activation factor does the source give for `Cc1cc(C(=O)NCC2(N3CCCCC3)CCCCC2)ccc1[N+](=O)[O-]` here?
A: Its activation factor is inactive: 0.919.

Q: With `CCN1CCCC(OC(=O)C2(O)c3ccccc3C=Cc3ccccc32)C1` (centres undefined) as the compound, how does the activation factor read?
A: The activation factor was inactive: 0.989.

Q: `COc1ccc(C(=O)NCC2(N(C)C)CCCCC2)cc1` was tested. Which activation factor did it give?
A: Its activation factor is inactive: 0.938.

Q: For `O=C(NCC1(N2CCCCC2)CCCCC1)c1cc(F)c(F)cc1Cl`, which activation factor is on record?
A: Its activation factor is inactive: 1.02.

Q: How did the activation factor turn out when `C=CCN1CCN(CCOC(=O)C(O)(c2ccccc2)c2ccccc2)CC1` was run?
A: The activation factor was inactive: 1.05.
